Patent publication US20040209246A1, “Dual reporter/dye reduction methodology for evaluating antiviral and cytotoxicity of hepatitis C virus inhibitors” (Agouron Pharmaceuticals, Inc., priority 2003, published 2004)

Columns and labels:
[1] = system: BB7 M4 hRLuc#10 replicon cell line (Huh-7); experiment: XTT dye reduction cytotoxicity, cell line #10; conditions: cell line #10, XTT dye reduction, three days incubation
Source text: (§1) In the current invention, two end points will be used to measure CC50 values. The first is XTT dye reduction methodology and the second is the use of the second reporter gene integrated in the nucleus of cells carrying the reporter-selectable HCV replicons. In case of both methodologies, a CC50 value will be generated from the same wells from which an EC50 value was obtained. The CC50 value would be generated by calculating % cytotoxicity of the inhibitor/compound treated wells compared to the no inhibitor/compound well resulting in generation of a dose dependent curve to obtain the value that was responsible for the death of 50% of the cells.
(§2) Cell line BB7 M4 hRLuc#10 was grown in DMEM without phenol red (catalog # 1053-028) at 10% FBS with 4 mM L-glutamine, 1×Pen-step, 1×non-essential amino acids, and 200 μg/ml G418 (all from Gibco BRL/Invitrogen). Line B6b was grown in the same media with the addition of 6 μg/ml Blasticidin (ICN Biomedicals). Experiments in these replicon lines were carried out in 96-well black wall, clear-bottom plates (Costar®; Corning Incorporated). Cells were seeded as diagrammed in the figure below at a density of 2×10^4/well in 100 μl DMEM (described above) without G418 or Blasticidin. […]
(§3) Cell line BB7 M4 hRLuc #10 contained the selectable reporter replicon BB7 M4-hRLuc, which served as an anti-viral marker, but cytotoxicity had to be measured by XTT. […]

[2] = system: B6b dual reporter replicon cell line (Huh-7)
Source text: as §1, §2, §3

[3] = system: B6b dual reporter replicon cell line (Huh-7); experiment: XTT dye reduction cytotoxicity, cell line B6b; conditions: three days incubation
Source text: as §1, §2, §3

interferon alpha [IFN]
>10 IU/ml: CC50 (XTT) [1] | CC50 (FLuc) [2] | CC50 (XTT) [3]
